In patent publication US8241562B1, “Enhanced toxic cloud knockdown spray system for decontamination applications” (dated 2012):

Assays:
[1] = 25° C.; cited from earlier work
[2] = Time to dissolve in Part A; conditions: after addition to Part A

Compound	soluble in water [1]	time to dissolve [2]
CC(=O)N(CCN(C(C)=O)C(C)=O)C(C)=O	0.1%	–
sodium percarbonate [milled sodium percarbonate]	–	about 2 minutes
sodium percarbonate [sodium percarbonate]	–	approximately 30 minutes
